In test [1] the target is T1, ATase (Homo sapiens, UniProt P16455).
T1 sequence (P16455 1-207): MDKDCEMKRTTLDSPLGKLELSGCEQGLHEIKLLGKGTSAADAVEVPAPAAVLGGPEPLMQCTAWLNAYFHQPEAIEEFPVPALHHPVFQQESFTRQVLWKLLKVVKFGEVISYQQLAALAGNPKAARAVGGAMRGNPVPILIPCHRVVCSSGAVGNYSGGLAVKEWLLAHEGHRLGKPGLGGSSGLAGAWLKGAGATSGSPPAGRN
The experiment in a line: Inactivation of ATase activity in Raji cells. It counts as cell-based. Further details: endogenous in cells; host or cells: Raji. The protocol:
Mammalian cells were cultured under standard conditions. For example, Raji (a human lymphoblastoid cell line from a Burkitt's lymphoma) cells were grown in suspension culture in RPMI medium supplemented with 10% horse serum. A375M cells are human melanoma cells from which the xenografts described below were established following subcutaneous injection into nude mice: WiDr cells are a human colon carcinoma cell line: Hamster+120 cells are a mitozolomide-selected subline of a Chinese hamster lung fibroblast V79 cell line called RJKO: Yoshida cells are a rat carcinosarcoma cell line and YRbus is a busulphan resistant subline thereof: XP cells are an SV40-transformed fibroblast cell line originally from the skin of a Xeroderma pigmentosum patient, pHMGhAT2b cells are a clone of these cells that have been transfected with a mammalian cell expression vector containing the human ATase cDNA and pHMGla cells are a clone that have been transfected with the expression vector only (i.e. one not containing the human ATase cDNA). Cell pellets were resuspended in cold (4°C) buffer I containing 2 µg/ml leupeptin and sonicated for 10 seconds at 12 µ peak to peak distance. After cooling in ice, the cells were sonicated for a further 10 seconds at 18 µ. […]

Test [2] concerns the target T1, ATase. The experiment in a line: Inactivation of ATase activity in WiDr cells. The format is cell-based. Set-up: endogenous in cells; host or cells: Raji. Here is the method:
(§1) Mammalian cells were cultured under standard conditions. For example, Raji (a human lymphoblastoid cell line from a Burkitt's lymphoma) cells were grown in suspension culture in RPMI medium supplemented with 10% horse serum. […]
(§2) Cells were diluted to 10^6/ml in culture medium containing either the appropriate concentration of inactivator or an equivalent volume of vehicle (DMSO). […] ATase activity was determined as described above, in duplicate sonicated cell extracts and expressed as the percentage activity remaining based on that present in the untreated controls (for example 350-450 fm/mg in Raji cells).

For test [3], the target named is T1, ATase. The experiment in a line: In vitro ATase inactivation assay with purified recombinant human ATase. The format is biochemical. Set-up: made in house. The settings on record: recombinant human ATase incubated with inactivator 1 hour at 37°C before substrate; read-out: I50. The protocol: The cDNA cloning and overexpression of the human ATase has been reported previously^23. Purification of the recombinant proteins was achieved either by affinity chromatography through a DNA-cellulose column as described by Wilkinson et al.,^25, 26, or by DEAE-cellulose ion-exchange chromatography. For the latter, the ATase protein was partially purified by ammonium sulphate precipitation (30 - 60%) and dialysed against 10 mM Tris-HCl pH 7.5, 1 mM DTT, 2 mM EDTA, 10% glycerol, before loading on a DEAF-cellulose column. The ATase was then eluted with a 0-0.1 M NaCl gradient.
Compounds to be tested were dissolved in DMSO to a final concentration of 10 mM and diluted just before use in buffer I containing 1 mg/ml bovine serum albumin (IBSA). Recombinant ATase was diluted in IBSA and titrated in order that the reaction be conducted under ATase, and not substrate, limiting conditions. In each assay, fixed amounts of ATase (60-75 fmol) were incubated with varying amounts of 0^6-benzylguanine, or test compound in a total volume of 200 µl of IBSA containing 10 µg of calf thymus DNA at 37°C for 1 hour. […] Following acid hydrolysis of the DNA as previously described^21 the [^3H]-methylated protein was recovered and quantitated by liquid scintillation counting. […]

The target in test [4] is T1, ATase. The experiment in a line: Inactivation of ATase activity in XP cells. The format is cell-based. Further details: endogenous in cells; host or cells: Raji. Here is the method: as §1, §2

Turning to `Nc1nc(OCc2ccccc2)c2nc[nH]c2n1` [O^6-benzylguanine, reference compound], the IC50 is 0.1 µM on ATase [1] (Human Raji cells, 2 hours at 37°C (Table 5), read-out: Inactivation of ATase in Mammalian Cells I50(µM) Human Raji); 0.1 µM on ATase [1] (Raji cells, 2 hours at 37°C, read-out: Raji I50); greater than 90 nM on ATase [2]; 40 nM on ATase [3]; 70 nM at ATase [4].

The record behind these values is patent EP0702683B1, “06-SUBSTITUTED GUANINE DERIVATIVES, A PROCESS FOR THEIR PREPARATION AND THEIR USE IN TREATING TUMOUR CELLS” (Cancer Research Technology Limited, priority 1993, dated 1994).
